Patent US20260382613A1, “METHODS OF TREATING ACUTE LEUKEMIA” (published 2026)

Columns and labels:
Wild-type menin = details: menin-MLL binding assay; cited from earlier work
[1] = clinical pharmacokinetics / exposure and exposure-response
[2] = plasma protein binding by ultracentrifugation, LC-MS/MS; details: 0.2, 2, and 10 μM; 37 °C

## CNc1nc(NC2CCN(Cc3ccc4c(cc(C#N)n4C[C@H](C)N4CCN(S(C)(=O)=O)CC4)c3C)CC2)c2cc(CC(F)(F)F)sc2n1
Wild-type menin
  IC50: 4.1 nM
[1]; NPM1-m
  correlation of exposure with risk of ≥Grade 3 AEs: not correlated with greater risk of ≥Grade 3 AEs
[1]; Ph1a
  overlap in exposure between 200/400 mg and 400/600 mg dose levels: significant overlap in exposure
[1]; any genetic subgroup
  correlation of exposure beyond 600 mg with clinical response: not significantly correlated with an increased probability of clinical response
[1]; steady state, QD
  exposure (AUC0-24, Ctrough, Cmax at steady state), 600 mg vs 200 mg: dose-dependent increases in exposure with the 600 mg dose over the 200 mg dose
  exposure, 600 mg vs 800 mg: comparable
[2]
  plasma protein binding: more than 99%
